Screening results as filed in PubChem BioAssay.
Yeast UUG start: alters start codon recognition fidelity in yeast | S. cerevisiae UUG-firefly luciferase reporter, luminescence/redox ratio | activity score, % at 18.7 µM | hit rate 0.13% among 350,000 | AID 602363;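 active means replicate mean at a twofold rise or more, about +100% in these data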;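 further: firefly luciferase made from a UUG start codon reports start codon fidelity; reporter light over untreated wells divided by growth signal over untreated wells; some hits fall short of that in this replicate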
Cneo AK release: causes C. neoformans cell lysis | adenylate kinase release luminescence, 4 h; normalised: neutral wells 0, clomiphene wells 100 | lysis activity, % at 15 µM | 360,000 compounds, 0.2% hits;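 active = mean lysis activity across replicates of at least 80%, whatever share of replicates individually reach that level; inactive = mean lysis activity below 80%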
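Assay system: C. neoformans cells. Amount: yeast cell density of 5 × 10^6 cells/mL. Technique: AK luminescence. Buffer or medium: YPD. Times: static 4 h at 37 °C with compound, 1 h detection. Dosing: single-point compound dose. Read-out: lysis from increased AK signal.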
C2C12 statin: suppressors of simvastatin-induced myotoxicity in C2C12 myotubes; ATP luminescence, 48 h; scaled: DMSO 0, geranylgeraniol control 100; rescue of ATP level, % at 7.49 µM; 330,000 compounds, 0.78% hits;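 active = mean ATP rescue above about 67%, or every replicate alone reaching that limit, limit read from the data, passing the limit was not always enough; inconclusive = no clear call, values can overlap the other calls; inactive = mean under the limit and some replicate under it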;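 also: myotubes were challenged with 10 µM simvastatin during compound exposure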
miR-122 sensor: miR-122 inhibition in Huh7 cells; Huh7 miR-122 Renilla luciferase sensor, 48 h; neutral wells = 0, positive control = 100; activation (reporter increase), % at 12.5 µM; 340,000 compounds, 0.3% hits; AID 602342;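 active = mean replicate activation score at least 90 and every replicate individually at or above 90; inconclusive = only one of the two criteria met; inactive = neither criterion met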;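 also: higher luciferase means less miR-122 activity so hits act as miR-122 inhibitors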
* marks the source's active call; other numbers are inactive results; u = inconclusive; x = no result given; [ ] = another dose, or the depositor's remark. An excerpt weighted towards active compounds, which were near 1.2% of everything screened.

| no. | Molecule | Yeast UUG start | Cneo AK release | C2C12 statin | miR-122 sensor |
| --- | --- | --- | --- | --- | --- |
| 1 | CCOc1c(S(=O)(=O)N2CCCC2)ccc(Cl)c1Cl | -1 | 1 | 122* | -2 |
| 2 | CCOc1ccc(S(=O)(=O)N2CCCC2)c2ccccc12 | 0 | -2 | 4 | x |
| 3 | C[C@H]1CN([C@@H](C)CO)C(=O)c2cccc(NC(=O)C3CCCCC3)c2O[C@H]1CN(C)CC1CC1 | -4 | 0 | -23 | 17[16.7 µM] |
| 4 | COc1ccc([C@H]2CC(=O)C=C(c3ccc(F)nc3)C2)cc1OC | -9 | -1 | 90* | -1 |
| 5 | COc1ccc(C2=CC(=O)C[C@H](c3ccc(OC)c(OC)c3)C2)cn1 | -21 | -2 | -8 | x |
| 6 | COc1ccc([C@H]2CC(=O)C=C(c3ccccc3)C2)cc1OC | -14 | -1 | 80* | 0 |
| 7 | C[C@@H]1CN([C@@H](C)CO)C(=O)Cc2cc(NC(=O)c3ccncc3)ccc2O[C@H]1CN(C)Cc1ccc(C(F)(F)F)cc1 | x | x | 10 | -14[16.7 µM] |
| 8 | COC(=O)C[C@@H]1CC[C@@H]2[C@H](COc3ccc(NC(=O)c4ccccc4)cc3C(=O)N2C)O1 | -2 | -9 | 2 | 1[16.7 µM] |
| 9 | N#C[C@@H]1[C@@H](c2ccc(C#CCC3CCCC3)cc2)[C@H](CO)N1C(=O)c1ccccn1 | 4 | -1 | 4 | x |
| 10 | N#C[C@H]1[C@@H](c2ccc(C#CCC3CCCC3)cc2)[C@@H](CO)N1C(=O)c1ccccn1 | 28 | 111* | -252 | x |
| 11 | COc1cc(OC)c(N(C)C(=O)c2cn(C)c(=O)c3cc(OC)c(OC)cc23)cc1Cl | 12 | 127* | -3 | x |
| 12 | Cc1ccc(S(=O)(=O)Nc2ccc3c(c2)C(=O)N([C@H](C)CO)C[C@@H](C)[C@@H](CN(C)S(=O)(=O)c2ccc(F)cc2)O3)cc1 | x | x | 16 | 35[16.7 µM] |
| 13 | CC1CCN(C(=O)CSc2nnc(CNC(=O)COc3ccc(Cl)cc3)o2)CC1 | 0 | 2 | 96* | 7 |
| 14 | O=C(COc1ccc(Cl)cc1)NCc1nnc(SCC(=O)NC2CCCCC2)o1 | -18 | 0 | 9 | -14 |
| 15 | CCCNC(=O)C[C@@H]1CC[C@@H]2[C@H](COc3ccc(NC(=O)CCC)cc3C(=O)N2C)O1 | 15 | 110* | -34 | 44[16.7 µM] |

(next part)
| no. | Molecule | Yeast UUG start | Cneo AK release | C2C12 statin | miR-122 sensor |
| --- | --- | --- | --- | --- | --- |
| 16 | CNC(=O)C[C@@H]1CC[C@@H]2[C@H](COc3ccc(NC(=O)c4cc(C)on4)cc3C(=O)N2C)O1 | 8 | 96* | 5 | 33[16.7 µM] |
| 17 | COCCNC(=O)C[C@@H]1CC[C@H]2[C@@H](COc3ccc(NC(C)=O)cc3C(=O)N2C)O1 | -5 | -5 | -2 | 183*[16.7 µM] |
| 18 | CN1C(=O)c2cc(NS(C)(=O)=O)ccc2OC[C@@H]2O[C@@H](CC(=O)O)CC[C@@H]21 | 5 | 90* | -66 | 35[16.7 µM] |
| 19 | COCCNC(=O)C[C@@H]1CC[C@@H]2[C@H](COc3ccc(NC(C)=O)cc3C(=O)N2C)O1 | 0 | -6 | 9 | 8[16.7 µM] |
| 20 | CCCNC(=O)C[C@H]1CC[C@H]2[C@H](COc3ccc(NC(=O)CCC)cc3C(=O)N2C)O1 | -11 | 0 | 2 | 13[16.7 µM] |
| 21 | CNC(=O)C[C@H]1CC[C@@H]2[C@@H](COc3ccc(NC(=O)c4cc(C)on4)cc3C(=O)N2C)O1 | -8 | -1 | 2 | 29[16.7 µM] |
| 22 | COc1ccc(S(=O)(=O)N2C[C@H](O)COC[C@H]3O[C@H](CC(=O)NCCCN(C)C)CC[C@@H]32)cc1 | 22 | -8 | 0 | -5[16.7 µM] |
| 23 | C[C@@H]1CN([C@H](C)CO)C(=O)c2cc(-c3ccc(F)cc3)cnc2O[C@H]1CN(C)C(=O)NC1CCCC1 | -6 | 7 | 33 | -7[16.7 µM] |
| 24 | Cc1ccc(N(Cc2cc3ccccc3[nH]c2=O)C(=O)c2cccs2)cc1C | -9 | 2 | 101* | 2 |
| 25 | C=CCN=C1NN=C(c2ccc3c(c2)OCCO3)CS1 | -65 | -1 | 1 | 154* |
| 26 | CC(C)(C)n1nnnc1C(c1cccs1)N(Cc1ccccc1)Cc1cccnc1 (centres undefined) | -14 | -3 | 124* | 2 |
| 27 | CC(C)(C)n1nnnc1C(c1cccnc1)N(Cc1ccccc1)Cc1cccs1 (centres undefined) | -9 | -1 | -13 | 24 |
| 28 | CC(C)NC(=O)Nc1cccc2c1O[C@@H](CN(C)C(=O)NC1CCCCC1)[C@@H](C)CN([C@H](C)CO)C2=O | 7 | -13 | -7 | -9[16.7 µM] |
| 29 | O=C1O/C(=C\C(=O)N2CCOCC2)c2ccccc21 | -16 | 9 | -6 | 0 |
| 30 | O=C1O/C(=C/C(=O)N2CCOCC2)c2ccccc21 | -20 | -1 | 74* | 2 |

A different layout for some results above:
(24) Cc1ccc(N(Cc2cc3ccccc3[nH]c2=O)C(=O)c2cccs2)cc1C
  Yeast UUG start: -9
  Cneo AK release: 2
  C2C12 statin: 101*
  miR-122 sensor: 2
(17) COCCNC(=O)C[C@@H]1CC[C@H]2[C@@H](COc3ccc(NC(C)=O)cc3C(=O)N2C)O1
  Yeast UUG start: -5
  Cneo AK release: -5
  C2C12 statin: -2
  miR-122 sensor: 183*[16.7 µM]
(19) COCCNC(=O)C[C@@H]1CC[C@@H]2[C@H](COc3ccc(NC(C)=O)cc3C(=O)N2C)O1
  Yeast UUG start: 0
  Cneo AK release: -6
  C2C12 statin: 9
  miR-122 sensor: 8[16.7 µM]
(18) CN1C(=O)c2cc(NS(C)(=O)=O)ccc2OC[C@@H]2O[C@@H](CC(=O)O)CC[C@@H]21
  Yeast UUG start: 5
  Cneo AK release: 90*
  C2C12 statin: -66
  miR-122 sensor: 35[16.7 µM]

(listing goes on)
| no. | Molecule | Yeast UUG start | Cneo AK release | C2C12 statin | miR-122 sensor |
| --- | --- | --- | --- | --- | --- |
| 31 | O=C1CSC(=Nc2ccccc2)N1 | -20 | -1 | 95* | -1 |
| 32 | O=C1CSC(=Nc2ccc(F)cc2)N1 | -5 | 5 | -1 | -4 |
| 33 | C[C@H](NC(=O)C[C@@H]1C[C@H]2c3cc(NC(=O)C4CCOCC4)ccc3O[C@H]2[C@@H](CO)O1)c1ccccc1 | x | 44 | -5 | 13[16.7 µM] |
| 34 | CCSc1nc(C2CC2)cc(-c2ccco2)c1C#N | -7 | 0 | 100* | -9 |
| 35 | CCSc1nc(C2CC2)cc(-c2cccs2)c1C#N | -25 | 2 | 26 | 4 |
| 36 | Cc1c(C(Nc2ccccn2)c2ccc(Cl)cc2)c(=O)n(-c2ccccc2)n1C (centres undefined) | 6 | 4 | -6 | -11 |
| 37 | Cc1c(C(Nc2ccccn2)c2ccccc2)c(=O)n(-c2ccccc2)n1C (centres undefined) | -16 | 10 | 81* | 1 |
| 38 | OCC[C@H]1C[C@@H](O)[C@H](O)[C@@]2(Cc3ccccc3O2)O1 | -5 | 2 | 118* | -8 |
| 39 | C[C@@H]1CN([C@@H](C)CO)C(=O)c2cc(NS(=O)(=O)c3ccc(F)cc3)ccc2O[C@@H](C)CCCCO[C@H]1CN(C)S(=O)(=O)c1ccc(F)cc1 | 10 | 101* | x | 4[16.7 µM] |
| 40 | C[C@@H]1CN([C@@H](C)CO)C(=O)c2cc(NS(=O)(=O)c3ccc(F)cc3)ccc2O[C@H]1CN(C)Cc1ccc(-c2ccccc2)cc1 | -11 | 19 | 71* | -26[16.7 µM] |
| 41 | C[C@@H]1CCCCO[C@@H](CN(C)S(=O)(=O)c2ccc(F)cc2)[C@H](C)CN([C@H](C)CO)C(=O)c2cc(NS(=O)(=O)c3ccc(F)cc3)ccc2O1 | -5 | -14 | x | -5[16.7 µM] |
| 42 | C[C@H]1CN([C@@H](C)CO)C(=O)c2cc(NS(=O)(=O)c3ccc(F)cc3)ccc2O[C@@H]1CN(C)S(=O)(=O)c1ccccc1 | 28 | 105* | 20 | 16[16.7 µM] |
| 43 | C[C@@H]1CN([C@H](C)CO)C(=O)c2cc(NS(=O)(=O)c3ccc(F)cc3)ccc2O[C@@H]1CN(C)Cc1ccc(-c2ccccc2)cc1 | 5 | 10 | u | 5[16.7 µM] |
| 44 | C[C@@H]1CCCCO[C@@H](CN(C)S(=O)(=O)c2ccc(F)cc2)[C@@H](C)CN([C@H](C)CO)C(=O)c2cc(NS(=O)(=O)c3ccc(F)cc3)ccc2O1 | -9 | -1 | x | 11[16.7 µM] |
| 45 | C[C@@H]1CCCCO[C@@H](CN(C)S(=O)(=O)c2ccc(F)cc2)[C@@H](C)CN([C@@H](C)CO)C(=O)c2cc(NS(=O)(=O)c3ccc(F)cc3)ccc2O1 | 28 | 104* | x | 47[16.7 µM] |
| 46 | COc1ccc(NC(=O)Nc2ccc3c(c2)C(=O)N([C@@H](C)CO)C[C@H](C)[C@@H](CN(C)C(=O)Nc2ccccc2)OCCCC[C@H](C)O3)cc1 | -6 | -2 | -1 | -12[16.7 µM] |
